Assay [1] addresses Glucocorticoid Receptor (GR) (Homo sapiens (Human), UniProt P04150). The assay can be described thus: LanthaScreen TR-FRET GR Competitive Binding Assay (cell free). Particulars: read-out: GR Competitive Binding Assay IC50. For orientation: TR-FRET usually uses a lanthanide donor and a delayed reading to cut background.
For assay [2], the target named is GR activation in 293/PRLR/GRE-Luc cells (HEK293/9xUAS-Luc2P/pBind-GR/PRLR-HA high cells) (UniProt P04150). The assay can be described thus: GR co-activator luciferase reporter cell based assay in 293/PRLR/GRE-Luc cells. Also on record: species or system human. For orientation: A reporter such as luciferase makes a cellular process visible.

Sequences of proteins named here, by UniProt entry; tags and fusion partners are left off. Residues count along the entry.
UniProt P04150, whole entry, looked up: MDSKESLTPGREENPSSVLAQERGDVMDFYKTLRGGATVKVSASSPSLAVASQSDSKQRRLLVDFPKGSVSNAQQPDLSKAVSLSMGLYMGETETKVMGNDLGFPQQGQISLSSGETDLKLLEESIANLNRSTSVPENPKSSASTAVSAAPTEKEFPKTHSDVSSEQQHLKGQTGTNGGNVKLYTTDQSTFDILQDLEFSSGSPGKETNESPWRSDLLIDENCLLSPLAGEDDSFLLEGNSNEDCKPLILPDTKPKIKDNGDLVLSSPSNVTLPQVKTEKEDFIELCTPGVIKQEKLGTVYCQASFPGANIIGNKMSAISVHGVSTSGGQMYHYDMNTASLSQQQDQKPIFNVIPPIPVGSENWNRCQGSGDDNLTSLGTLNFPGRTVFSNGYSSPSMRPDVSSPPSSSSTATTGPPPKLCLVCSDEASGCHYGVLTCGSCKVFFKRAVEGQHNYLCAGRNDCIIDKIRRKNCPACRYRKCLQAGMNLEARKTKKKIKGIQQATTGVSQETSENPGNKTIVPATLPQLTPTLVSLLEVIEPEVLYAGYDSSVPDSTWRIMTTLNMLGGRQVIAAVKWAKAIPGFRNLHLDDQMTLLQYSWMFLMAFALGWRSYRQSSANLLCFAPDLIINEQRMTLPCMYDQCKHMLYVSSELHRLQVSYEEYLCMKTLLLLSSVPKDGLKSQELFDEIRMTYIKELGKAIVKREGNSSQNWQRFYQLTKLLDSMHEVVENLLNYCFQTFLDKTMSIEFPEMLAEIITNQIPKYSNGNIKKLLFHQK
UniProt P04150, 524-758 limits assumed: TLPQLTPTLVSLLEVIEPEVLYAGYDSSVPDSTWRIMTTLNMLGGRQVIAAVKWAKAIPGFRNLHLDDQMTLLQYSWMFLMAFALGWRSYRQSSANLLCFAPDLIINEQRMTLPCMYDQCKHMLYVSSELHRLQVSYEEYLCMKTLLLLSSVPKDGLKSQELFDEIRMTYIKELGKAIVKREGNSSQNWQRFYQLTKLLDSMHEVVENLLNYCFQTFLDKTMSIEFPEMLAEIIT

The record followed here is patent US11760775B2, “Steroids and protein-conjugates thereof” (Regeneron Pharmaceuticals, Inc., priority 2016, dated 2023).

Bounds are passed on as bounds.

By IC50 is commonly meant the point on the concentration scale where inhibition reaches its midpoint.

For `C[C@H]1C[C@@H]2[C@H]([C@@H](O)C[C@@]3(C)[C@H]2CC[C@]3(O)C(=O)COc2ccc(N)cc2)[C@@]2(C)C=CC(=O)C=C12`, the IC50 in assay [1] is under 10 nM. Further, in assay [2] (fold activation vs Budesonide), the “HEK293/9xUAS-Luc2P/pBind-GR/PRLR-HA high cells activation relative to Budesonide” value is “No”.

`CCCC1OC2CC3C4CCC5=CC(=O)C=CC5(C)C4C(O)CC3(C)C2(C(=O)COc2ccc(N)c(F)c2)O1` (centres unmarked): the IC50 in assay [1] lay within 10 to 100 nM. In addition, the “Activation (fold activation relative to Budesonide) in HEK293/9xUAS-Luc2P/pBind-GR/PRLR-HA high cells” value in assay [2] (72 hours of incubation) is recorded as “Full activation (Full activation: >75% of fold activation induced by Budesonide)”. Further, the EC50 in assay [2] (read-out: HEK293/9xUAS-Luc2P/pBind-GR/PRLR-HA high cells EC50, 72 hours of incubation) lay in the range of 10 to 100 nM.
